Laboratory results as given in patent US20060079453A1, “Hla binding peptides and their uses” (priority 2002, published 2006).
Where two headings read alike, the source gives them in different places.

Columns and labels:
Experiment in all cases: biochemical
[1] = target: HLA-A*3002 (Homo sapiens, UniProt P04439, D101N/D140H/D185E/E176R/F33S/G80R/H175R/K168Q/Q94H/R138E/R41S/V100E); conditions: Binding affinity to A*3002 (expressed as an IC50)
[2] = target: HLA-A*6802 (Homo sapiens, UniProt P04439, A269V/D140Y/D185E/E176V/E277Q/E87N/F33Y/G231S/I121R/I166T/I218V/L180W/L300P/L318F/N151K/P208A/P217A/Q86R/R138H/R169H/S129P/T345S/V36M); conditions: A*6802 binding affinity (expressed as an IC50)
[3] = target: HLA-A*0206 (Homo sapiens, UniProt P04439, D140Y/D185E/D98H/E176V/E277Q/F33Y/G131W/G231S/I119V/I121R/I166T/I218V/L300P/L318F/N151K/N90K/P208A/P217A/Q86G/Q94H/R138H/R169H/T345S); assay type: binding
[4] = target: HLA-A*0203 (Homo sapiens, UniProt P04439, A173T/D140Y/D185E/D98H/E277Q/G131W/G231S/I119V/I121R/I166T/I218V/L180W/L300P/L318F/N151K/N90K/P208A/P217A/Q86G/Q94H/R138H/R169H/T345S); assay type: binding; conditions: A*0203 binding affinity (expressed as an IC50)
[5] = target: HLA-A*0202 (Homo sapiens, UniProt P04439, D140Y/D185E/D98H/E176V/E277Q/G131W/G231S/I119L/I121R/I166T/I218V/L180W/L300P/L318F/N151K/N90K/P208A/P217A/Q67R/Q86G/Q94H/R138H/R169H/T345S); assay type: binding
[6] = target: HLA-A*0201 (Homo sapiens, UniProt P04439, D140Y/D185E/D98H/E176V/E277Q/G131W/G231S/I119V/I121R/I166T/I218V/L300P/L318F/N151K/N90K/P208A/P217A/Q86G/Q94H/R138H/R169H/T345S); assay type: binding; conditions: read-out: A*0201 binding affinity (expressed as an IC50)
[7] = A*0206 binding affinity (expressed as an IC50)
[8] = A*0202 binding affinity (expressed as an IC50)

| Compound | IC50 [3, 7] [nM] | IC50 [4] [nM] | IC50 [5, 8] [nM] | other results |
| --- | --- | --- | --- | --- |
| CC[C@H](C)[C@H](NC(=O)[C@@H](N)CCCNC(=N)N)C(=O)N[C@@H](CO)C(=O)NCC(=O)N[C@H](C(=O)N[C@@H](CC(=O)O)C(=O)N[C@@H](CCCNC(=N)N)C(=O)N[C@@H](Cc1ccc(O)cc1)C(=O)N[C@@H](Cc1ccc(O)cc1)C(=O)O)C(C)C |  |  |  | IC50 [1]: 3 nM |
| CC(C)C[C@H](NC(=O)[C@H](Cc1c[nH]c2ccccc12)NC(=O)[C@@H](NC(=O)[C@H](Cc1ccccc1)NC(=O)[C@H](Cc1ccccc1)NC(=O)[C@H](CC(=O)O)NC(=O)[C@H](Cc1ccc(O)cc1)NC(=O)[C@@H](NC(=O)[C@@H](N)CO)C(C)C)C(C)C)C(=O)O | 10 | 226 |  | IC50 [2]: 0.86 nM |
| CC(C)C[C@H](NC(=O)CN)C(=O)N[C@@H](Cc1c[nH]cn1)C(=O)NCC(=O)N[C@@H](CCC(N)=O)C(=O)N[C@@H](CC(=O)O)C(=O)N[C@@H](CC(C)C)C(=O)N[C@@H](Cc1ccccc1)C(=O)NCC(=O)N[C@H](C(=O)O)C(C)C |  | 3.1 | 2.3 |  |
| LLWQPIPVTIV |  |  |  | IC50 ([5]; read-out: A*0202 binding affinity (expressed as an IC50)): 1.8 nM; IC50 ([3]; read-out: A*0206 binding affinity (expressed as an IC50)): 285 nM; IC50 [6]: 25 nM |
| CC[C@H](C)[C@H](NC(=O)[C@H](CS)NC(=O)[C@H](CC(C)C)NC(=O)[C@@H]1CCCN1C(=O)[C@@H](NC(=O)[C@H](CC(C)C)NC(=O)[C@@H](N)CCCCN)[C@@H](C)O)C(=O)N[C@H](C(=O)N[C@@H](CC(C)C)C(=O)O)[C@@H](C)O |  |  | 0.27 |  |
| CC(C)C[C@H](NC(=O)[C@H](CO)NC(=O)[C@H](CC(C)C)NC(=O)[C@@H](N)CO)C(=O)NCC(=O)N[C@@H](Cc1ccccc1)C(=O)N[C@@H](CC(C)C)C(=O)N[C@@H](Cc1ccccc1)C(=O)N[C@@H](CC(C)C)C(=O)N[C@H](C(=O)O)C(C)C | 42 | 17 | 3.9 |  |
